## Ab-95 light chain CDR variants: yeast mating affinities

Antigen: PDVDLGDISGINAS, a 14-residue peptide of the SARS-CoV-2 spike HR2 region.

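Phage display of a naive human antibody library on the peptide gave the parent. In library AAYL52, one, two or three CDR residues were substituted; doubles and triples were drawn at random. Affinity was read by AlphaSeq, a pooled yeast mating assay with surface-displayed partners. After mating in shaken culture at 30 °C for 16 h, diploids were selected and their barcode pairs sequenced. A regression on co-assayed BCL2-family reference pairs converts the normalised counts of each replicate to an apparent Kd. Mating was done three times.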

The variants keep the heavy chain, the linker and the frameworks of Ab-95 (scFv order VH, three GGGGS repeats, VL).
VH: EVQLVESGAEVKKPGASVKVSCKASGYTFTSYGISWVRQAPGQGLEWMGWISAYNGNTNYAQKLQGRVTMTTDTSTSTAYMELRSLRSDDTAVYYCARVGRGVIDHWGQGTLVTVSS
VL: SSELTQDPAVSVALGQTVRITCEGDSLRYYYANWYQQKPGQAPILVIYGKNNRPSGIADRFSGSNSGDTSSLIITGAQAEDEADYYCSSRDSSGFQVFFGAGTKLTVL

Each variant's VL is given in full. Values are apparent Kd, the geometric mean of the replicates that gave a signal; lower means stronger binding. "nd" marks a missing value. The strain was present, yet no cells mated with the target were sequenced in any replicate, which points to weak or no binding. Entries are sorted by rising average, undetected variants last. For reference, the parent read 200 nM as the reference entry and 180 nM as a member of this library.

VL | Kd (apparent) | detected
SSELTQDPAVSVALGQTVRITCEGDSLRYEYANWYQQKPGQAPILVIYGKNNRPGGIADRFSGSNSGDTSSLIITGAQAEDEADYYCSSLDSSGFQVFFGAGTKLTVL | 55 nM | 3 of 3
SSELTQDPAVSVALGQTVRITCEGDSQRYYYKNWYQQKPGQAPILVIYGMNNRPSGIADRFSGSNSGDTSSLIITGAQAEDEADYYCSSRDSSGFQVFFGAGTKLTVL | 300 nM | 3 of 3
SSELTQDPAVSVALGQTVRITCMGDALRDYYANWYQQKPGQAPILVIYGKNNRPSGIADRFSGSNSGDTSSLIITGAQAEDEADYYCSSRDSSGFQVFFGAGTKLTVL | 340 nM | 3 of 3
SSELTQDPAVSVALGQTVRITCEGDSGRSYYANWYQQKPGQAPILVIYGKNNRPSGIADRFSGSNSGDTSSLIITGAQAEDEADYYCSSRDSSGFKVFFGAGTKLTVL | 440 nM | 3 of 3
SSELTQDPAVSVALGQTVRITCTRDSLRYYYANWYQQKPGQAPILVIYGKNNRPSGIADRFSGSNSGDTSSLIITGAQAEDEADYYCSSRDSSGFQVAFGAGTKLTVL | 460 nM | 3 of 3
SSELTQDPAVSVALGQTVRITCEGDSLRYYYAIWYQQKPGQAPILVIYDKENRPSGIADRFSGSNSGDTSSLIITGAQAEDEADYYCSSRDSSGFQVFFGAGTKLTVL | 540 nM | 1 of 3
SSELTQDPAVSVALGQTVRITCEGDSLRYYYANWYQQKPGQAPILVIYGKNKRPSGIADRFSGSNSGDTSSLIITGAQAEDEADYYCSSRDSAGFQVFFGAGTKLTVL | 630 nM | 2 of 3
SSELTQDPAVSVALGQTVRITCEGDSLRYPYANWYQQKPGQAPILVIYGKNWRPSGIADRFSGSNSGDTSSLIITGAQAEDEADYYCSKRDSSGFQVFFGAGTKLTVL | 1.1 µM | 3 of 3
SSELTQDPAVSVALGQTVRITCEGDSLEYYYADWYQQKPGQAPILVIYGKNNKPSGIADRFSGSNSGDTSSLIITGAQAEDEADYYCSSRDSSGFQVFFGAGTKLTVL | 1.5 µM | 1 of 3
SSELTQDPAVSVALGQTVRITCEGDSLRYYYANWYQQKPGQAPILVIYGKDNAPSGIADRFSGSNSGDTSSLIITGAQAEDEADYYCSSRDSSGMQVFFGAGTKLTVL | 1.7 µM | 3 of 3
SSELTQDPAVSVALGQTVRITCQGKSLRYYYANWYQQKPGQAPILVIYGKHNRPSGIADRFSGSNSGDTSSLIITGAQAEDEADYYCSSRDSSGFQVFFGAGTKLTVL | 1.9 µM | 3 of 3
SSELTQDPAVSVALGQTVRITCGGDSLRYYYANWYQQKPGQAPILVIYAKNNRPSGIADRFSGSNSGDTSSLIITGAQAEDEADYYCSSRASSGFQVFFGAGTKLTVL | 2.0 µM | 2 of 3
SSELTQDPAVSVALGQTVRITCEGDSLRYYYANWYQQKPGQAPILVIYGKNKRPSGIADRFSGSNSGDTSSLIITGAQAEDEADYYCSSRDSSGFHMFFGAGTKLTVL | 2.1 µM | 3 of 3
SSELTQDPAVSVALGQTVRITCSGDSPRYYYANWYQQKPGQAPILVIYGKNNRPSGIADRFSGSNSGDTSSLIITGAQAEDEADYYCSSRDASGFQVFFGAGTKLTVL | 2.9 µM | 2 of 3
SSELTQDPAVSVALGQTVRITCEGDSLRYYYANWYQQKPGQAPILVIYGINNRPSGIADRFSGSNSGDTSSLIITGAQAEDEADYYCSSRDSSGFINFFGAGTKLTVL | 3.2 µM | 2 of 3
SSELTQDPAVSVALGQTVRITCEGYSLRYYYAYWYQQKPGQAPILVIYGKNNRDSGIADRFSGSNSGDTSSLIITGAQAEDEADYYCSSRDSSGFQVFFGAGTKLTVL | 4.7 µM | 3 of 3
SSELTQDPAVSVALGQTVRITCEGDSLRAYYANWYQQKPGQAPILVIYGYNNRPSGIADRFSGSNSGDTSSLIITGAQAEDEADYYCSSRDSSQFQVFFGAGTKLTVL | 4.9 µM | 2 of 3
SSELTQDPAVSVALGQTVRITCEGDSLRYYYANWYQQKPGQAPILVIYGGNNLPSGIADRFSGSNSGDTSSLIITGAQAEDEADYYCSSRDSSGFQPFFGAGTKLTVL | 6.7 µM | 3 of 3
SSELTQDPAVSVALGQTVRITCEKDSLRYYYANWYQQKPGQAPILVIYKKNNRPSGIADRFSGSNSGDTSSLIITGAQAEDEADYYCSSRDSSGRQVFFGAGTKLTVL | 39 µM | 3 of 3
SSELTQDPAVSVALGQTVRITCEGDSLRYYYKNWYQQKPGQAPILVIYGKNNRPSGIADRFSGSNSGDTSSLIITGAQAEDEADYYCSSVDSSGFQHFFGAGTKLTVL | 43 µM | 1 of 3
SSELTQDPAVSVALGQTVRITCENDSLRYYYANWYQQKPGQAPILVIYGKNNRPSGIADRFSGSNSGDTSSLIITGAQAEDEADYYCSSCDSSSFQVFFGAGTKLTVL | 240 µM | 1 of 3
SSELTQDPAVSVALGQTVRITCEGVSLRYYYANWYQQKPGQAPILVIYGKNNRPWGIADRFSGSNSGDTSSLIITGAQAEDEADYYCSSRDSSGFQVTFGAGTKLTVL | nd | 0 of 3
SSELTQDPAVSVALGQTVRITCEHDSLRYYKANWYQQKPGQAPILVIYGKNNRGSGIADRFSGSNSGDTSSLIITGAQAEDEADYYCSSRDSSGFQVFFGAGTKLTVL | nd | 0 of 3

The opening 2 entries, copied out:

| VL | Kd (apparent) | detected |
|---|---|---|
| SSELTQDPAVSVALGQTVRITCEGDSLRYEYANWYQQKPGQAPILVIYGKNNRPGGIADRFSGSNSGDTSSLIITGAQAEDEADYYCSSLDSSGFQVFFGAGTKLTVL | 55 nM | 3 of 3 |
| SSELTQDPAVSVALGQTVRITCEGDSQRYYYKNWYQQKPGQAPILVIYGMNNRPSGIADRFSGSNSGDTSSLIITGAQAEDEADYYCSSRDSSGFQVFFGAGTKLTVL | 300 nM | 3 of 3 |

Empty control strains, which show no peptide, gave a signal in 28% of pairings with library AAYL52; the median was 8.2 µM and 95% of these signals were weaker than 800 nM. No background was subtracted.

Values reported by Engelhart et al. 2022, doi:10.1038/s41597-022-01779-4 (FLAb copy).